Measurements reported in US6653300B2, “Pyrazole compounds useful as protein kinase inhibitors” (Vertex Pharmaceuticals Incorporated, priority 2000, dated 2003).

Protein sequences, listed by entry. Tags and fused reporters are not part of them. Lines headed by an entry give the natural chain unless they say otherwise; changes in a name come on top.
UniProt P49841: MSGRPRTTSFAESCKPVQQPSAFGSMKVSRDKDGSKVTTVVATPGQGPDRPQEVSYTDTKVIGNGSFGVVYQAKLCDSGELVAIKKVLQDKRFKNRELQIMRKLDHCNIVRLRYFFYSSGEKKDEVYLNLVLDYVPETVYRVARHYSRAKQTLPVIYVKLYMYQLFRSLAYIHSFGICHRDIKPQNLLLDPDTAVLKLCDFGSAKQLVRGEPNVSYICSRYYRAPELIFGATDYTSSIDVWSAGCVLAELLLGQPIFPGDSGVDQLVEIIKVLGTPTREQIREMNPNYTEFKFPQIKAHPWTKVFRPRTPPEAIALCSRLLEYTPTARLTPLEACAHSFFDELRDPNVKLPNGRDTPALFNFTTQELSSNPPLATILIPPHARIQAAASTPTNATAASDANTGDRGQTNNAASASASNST
UniProt P12931, whole entry: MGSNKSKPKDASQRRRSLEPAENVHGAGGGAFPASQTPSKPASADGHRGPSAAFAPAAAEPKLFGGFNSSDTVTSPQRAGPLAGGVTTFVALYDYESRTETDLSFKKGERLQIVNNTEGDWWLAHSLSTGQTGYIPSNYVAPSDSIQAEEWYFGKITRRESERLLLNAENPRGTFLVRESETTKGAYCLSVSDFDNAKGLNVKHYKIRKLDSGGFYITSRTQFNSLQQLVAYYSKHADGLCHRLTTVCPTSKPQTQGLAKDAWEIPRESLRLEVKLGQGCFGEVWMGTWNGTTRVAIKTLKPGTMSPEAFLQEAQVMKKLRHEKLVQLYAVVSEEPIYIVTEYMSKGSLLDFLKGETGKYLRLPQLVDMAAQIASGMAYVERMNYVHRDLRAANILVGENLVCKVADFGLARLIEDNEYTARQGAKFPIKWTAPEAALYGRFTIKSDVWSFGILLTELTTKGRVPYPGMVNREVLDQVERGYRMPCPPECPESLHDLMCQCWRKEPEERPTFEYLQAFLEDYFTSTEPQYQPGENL

Assays:
Assay type in all cases: biochemical
GSK-3β (AA 1-420) = molecular target: T1, GSK-3β (AA 1-420) (Homo sapiens, UniProt P49841); test: Ki determination for the inhibition of GSK-3 (coupled enzyme system); settings: Ki values for GSK-3, 20 μM ATP, 20 nM GSK-3β, 30° C.
T1 construct: GSK-3β (AA 1-420)
Method: Compounds were screened for their ability to inhibit GSK-3β (AA 1-420) activity using a standard coupled enzyme system (Fox et al. (1998) Protein Sci. 7, 2249). Reactions were carried out in a solution containing 100 mM HEPES (pH 7.5), 10 mM MgCl2, 25 mM NaCl, 300 μM NADH, 1 mM DTT and 1.5% DMSO. Final substrate concentrations in the assay were 20 μM ATP (Sigma Chemicals, St Louis, Mo.) and 300 μM peptide (HSSPHQS (PO3H2) EDEEE, American Peptide, Sunnyvale, Calif.). Reactions were carried out at 30° C. and 20 nM GSK-3β. Final concentrations of the components of the coupled enzyme system were 2.5 mM phosphoenolpyruvate, 300 μM NADH, 30 μg/ml pyruvate kinase and 10 μg/ml lactate dehydrogenase.
An assay stock buffer solution was prepared containing all of the reagents listed above with the exception of ATP and the test compound of interest. The assay stock buffer solution (175 μl) was incubated in a 96 well plate with 5 μl of the test compound of interest at final concentrations spanning 0.002 μM to 30 μM at 30° C. for 10 min. […] The reaction was initiated by the addition of 20 μl of ATP (final concentration 20 μM). Rates of reaction were obtained using a Molecular Devices Spectramax plate reader (Sunnyvale, Calif.) over 10 min at 30° C. The Ki values were determined from the rate data as a function of inhibitor concentration.

Aurora-2 = molecular target: T2, Aurora-2 (Homo sapiens, UniProt O14965); test: Ki determination for the inhibition of Aurora-2 (coupled enzyme assay); settings: 70 nM Aurora-2, 30° C.; read-out: Ki values for Aurora-2
T2 sequence (O14965 1-403): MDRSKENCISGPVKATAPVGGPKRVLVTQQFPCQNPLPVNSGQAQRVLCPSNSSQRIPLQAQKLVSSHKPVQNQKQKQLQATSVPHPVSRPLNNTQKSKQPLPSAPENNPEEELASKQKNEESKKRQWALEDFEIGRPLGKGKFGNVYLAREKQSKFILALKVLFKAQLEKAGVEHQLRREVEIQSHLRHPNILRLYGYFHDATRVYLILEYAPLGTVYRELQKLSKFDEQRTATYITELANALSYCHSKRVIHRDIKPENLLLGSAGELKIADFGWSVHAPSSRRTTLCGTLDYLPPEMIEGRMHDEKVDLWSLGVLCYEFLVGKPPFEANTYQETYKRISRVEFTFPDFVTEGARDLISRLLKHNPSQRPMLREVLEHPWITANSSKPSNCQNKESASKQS
Method: Compounds were screened in the following manner for their ability to inhibit Aurora-2 using a standard coupled enzyme assay (Fox et al (1998) Protein Sci 7, 2249).
To an assay stock buffer solution containing 0.1M HEPES 7.5, 10 mM MgCl2, 1 mM DTT, 25 mM NaCl, 2.5 mM phosphoenolpyruvate, […], 30 mg/ml pyruvate kinase, 10 mg/ml lactate dehydrogenase, […], and 800 μM peptide (LRRASLG, American Peptide, Sunnyvale, Calif.) was added a DMSO solution of a compound of the present invention to a final concentration of 30 μM. The resulting mixture was incubated at 30° C. for 10 min. The reaction was initiated by the addition of 10 μL of Aurora-2 stock solution to give a final concentration of 70 nM in the assay. The rates of reaction were obtained by monitoring absorbance at 340 nm over a 5 minute read time at 30° C. using a BioRad Ultramark plate reader (Hercules, Calif.). The Ki values were determined from the rate data as a function of inhibitor concentration.

human Src kinase = molecular target: T3, human Src kinase (Homo sapiens, UniProt P12931); test: SRC inhibition assay (radioactivity-based or spectrophotometric assay)
T3 construct: full length recombinant human Src kinase (from Upstate Biotechnology, cat. no. 14-117); purchased Upstate Biotechnology 14-117; host or cells: baculo viral cells
Method: The compounds were evaluated as inhibitors of human Src kinase using either a radioactivity-based assay or spectrophotometric assay. The compounds were assayed as inhibitors of full length recombinant human Src kinase (from Upstate Biotechnology, cat. no. 14-117) expressed and purified from baculo viral cells. […] P-0275). […] In a typical assay, all the reaction components with the exception of ATP were pre-mixed and aliquoted into assay plate wells. […] The assay plate was incubated at 30° C. for 10 min before initiating the reaction with ^33P-ATP. After 20 min of reaction, the reactions were quenched with 150 μl of 10% trichloroacetic acid (TCA) containing 20 mM Na3PO4. The quenched samples were then transferred to a 96-well filter plate (Whatman, UNI-Filter GF/F Glass Fiber Filter, cat no. 7700-3310) installed on a filter plate vacuum manifold. Filter plates were washed four times with 10% TCA containing 20 mM Na3PO4 and then 4 times with methanol. 200 μl of scintillation fluid was then added to each well. The plates were sealed and the amount of radioactivity associated with the filters was quantified on a TopCount scintillation counter. The radioactivity incorporated was plotted as a function of the inhibitor concentration. The data was fitted to a competitive inhibition kinetics model to get the Ki for the compound. The ADP produced from ATP by the human recombinant Src kinase-catalyzed phosphorylation of poly Glu-Tyr substrate was quanitified using a coupled enzyme assay (Fox et al (1998) Protein Sci 7, 2249). In this assay one molecule of NADH is oxidised to NAD for every molecule of ADP produced in the kinase reaction. The disappearance of NADH can be conveniently followed at 340 nm. […] In a typical assay, all the reaction components with the exception of ATP were pre-mixed and aliquoted into assay plate wells. […] The absorbance change at 340 nm with time, the rate of the reaction, was monitored on a molecular devices plate reader. The data of rate as a function of the inhibitor concentration was fitted to competitive inhibition kinetics model to get the Ki for the compound.

## Cc1cc(Nc2nc(N(C)c3ccccc3)nc3ccccc23)n[nH]1 [IIc-2, [2-(Methylphenylamino)-quinazolin-4-yl]-(5-methyl-2H-pyrazol-3-yl)-amine]
GSK-3β (AA 1-420)
  Ki: 0.1 to 1 µM
Aurora-2
  Ki: < 0.1 µM
Human Src kinase
  Ki: 1 to 6 µM
